Laboratory results published in ChEMBL document CHEMBL2321664, “L-Aminoacyl-triazine derivatives are isoform-selective PI3Kβ inhibitors that target non-conserved Asp862 of PI3Kβ” (ACS Med Chem Lett, 2013).
pIC50: −log10 of the molar value.

Chains of the proteins cited; added tags and fusions are not shown. Lines headed by an entry give the natural chain unless they say otherwise; changes in a name come on top.
UniProt P42336, whole entry: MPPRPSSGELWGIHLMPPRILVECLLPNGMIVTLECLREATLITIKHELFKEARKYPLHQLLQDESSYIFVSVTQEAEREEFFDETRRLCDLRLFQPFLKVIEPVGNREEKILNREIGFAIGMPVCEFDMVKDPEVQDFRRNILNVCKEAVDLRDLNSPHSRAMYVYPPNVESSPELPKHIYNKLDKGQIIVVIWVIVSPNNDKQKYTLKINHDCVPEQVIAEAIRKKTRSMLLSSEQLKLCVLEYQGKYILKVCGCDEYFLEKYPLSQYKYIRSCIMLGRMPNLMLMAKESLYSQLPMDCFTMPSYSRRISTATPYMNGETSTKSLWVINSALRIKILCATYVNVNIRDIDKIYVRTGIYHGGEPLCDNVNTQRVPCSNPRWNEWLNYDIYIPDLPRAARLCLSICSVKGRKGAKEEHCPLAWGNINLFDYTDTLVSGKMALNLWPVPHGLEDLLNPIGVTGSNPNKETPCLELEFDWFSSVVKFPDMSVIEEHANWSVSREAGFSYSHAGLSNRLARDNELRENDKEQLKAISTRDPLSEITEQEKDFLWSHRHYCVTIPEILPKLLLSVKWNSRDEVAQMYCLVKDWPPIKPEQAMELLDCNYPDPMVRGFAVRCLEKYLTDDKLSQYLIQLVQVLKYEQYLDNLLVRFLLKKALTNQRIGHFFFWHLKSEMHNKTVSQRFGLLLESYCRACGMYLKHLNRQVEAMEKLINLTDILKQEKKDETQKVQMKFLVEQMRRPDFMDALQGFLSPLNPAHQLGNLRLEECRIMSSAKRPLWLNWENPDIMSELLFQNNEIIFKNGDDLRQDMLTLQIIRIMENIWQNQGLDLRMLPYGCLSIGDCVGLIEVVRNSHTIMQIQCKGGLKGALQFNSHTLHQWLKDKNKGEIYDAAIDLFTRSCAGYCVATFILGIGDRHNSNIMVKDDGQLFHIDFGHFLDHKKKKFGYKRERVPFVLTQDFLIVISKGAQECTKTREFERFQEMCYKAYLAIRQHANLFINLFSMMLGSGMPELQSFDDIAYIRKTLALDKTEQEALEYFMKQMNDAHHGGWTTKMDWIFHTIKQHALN
UniProt P48736: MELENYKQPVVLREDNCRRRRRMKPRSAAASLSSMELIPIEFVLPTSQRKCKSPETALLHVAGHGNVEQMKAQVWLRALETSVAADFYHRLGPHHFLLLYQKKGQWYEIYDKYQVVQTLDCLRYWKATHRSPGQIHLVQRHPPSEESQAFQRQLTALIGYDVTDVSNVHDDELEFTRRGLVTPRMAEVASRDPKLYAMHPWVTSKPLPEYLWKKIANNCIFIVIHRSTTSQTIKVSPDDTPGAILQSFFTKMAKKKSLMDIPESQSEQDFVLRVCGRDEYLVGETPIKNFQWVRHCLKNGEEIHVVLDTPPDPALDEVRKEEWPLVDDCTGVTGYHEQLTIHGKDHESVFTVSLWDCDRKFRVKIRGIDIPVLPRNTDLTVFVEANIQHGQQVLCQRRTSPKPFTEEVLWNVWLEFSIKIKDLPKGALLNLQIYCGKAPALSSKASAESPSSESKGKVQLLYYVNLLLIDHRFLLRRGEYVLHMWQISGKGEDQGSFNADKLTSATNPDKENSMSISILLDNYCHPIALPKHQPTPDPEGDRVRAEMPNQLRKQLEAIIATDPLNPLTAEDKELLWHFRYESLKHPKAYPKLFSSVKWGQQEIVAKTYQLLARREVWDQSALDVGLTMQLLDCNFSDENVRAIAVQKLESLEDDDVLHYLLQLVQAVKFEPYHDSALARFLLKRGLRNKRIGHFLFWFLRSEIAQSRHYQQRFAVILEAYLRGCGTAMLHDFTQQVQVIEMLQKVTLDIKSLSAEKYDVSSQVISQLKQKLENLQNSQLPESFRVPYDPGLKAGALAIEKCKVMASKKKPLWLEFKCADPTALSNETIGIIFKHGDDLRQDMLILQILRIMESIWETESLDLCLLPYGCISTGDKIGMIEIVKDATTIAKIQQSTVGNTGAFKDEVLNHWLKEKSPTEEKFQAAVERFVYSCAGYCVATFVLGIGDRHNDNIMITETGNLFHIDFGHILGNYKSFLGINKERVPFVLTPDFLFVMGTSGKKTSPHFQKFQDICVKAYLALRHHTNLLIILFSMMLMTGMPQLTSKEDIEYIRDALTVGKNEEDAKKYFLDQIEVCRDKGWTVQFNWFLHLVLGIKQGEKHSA

How the values were obtained:
[1] = target: T1, Phosphatidylinositol 4,5-bisphosphate 3-kinase catalytic subunit alpha isoform (Homo sapiens, UniProt P42336); assay: Inhibition of PI3K-alpha (unknown origin) assessed as decrease in ATP consumption using phosphatidylinositol bisphosphate and 10 uM ATP as substrate measured after 60 mins by luminescence assay
[2] = target: Phosphatidylinositol 4,5-bisphosphate 3-kinase catalytic subunit gamma isoform (Homo sapiens, UniProt P48736); assay: Inhibition of PI3K-gamma (unknown origin) assessed as decrease in ATP consumption using phosphatidylinositol bisphosphate and 10 uM ATP as substrate measured after 60 mins by luminescence assay
[3] = target: T1, Phosphatidylinositol 4,5-bisphosphate 3-kinase catalytic subunit alpha isoform; assay: Inhibition of wild type PI3K-alpha (unknown origin) assessed as decrease in ATP consumption using phosphatidylinositol bisphosphate and 100 uM ATP as substrate measured after 60 mins by luminescence assay

C[C@@H](N)C(=O)N1CCN(c2nc(N3CCOCC3)nc(-n3c(C(F)F)nc4ccccc43)n2)CC1
pIC50 [1]: 5.43

C[C@H](N)C(=O)N1CCN(c2nc(N3CCOCC3)nc(-n3c(C(F)F)nc4ccccc43)n2)CC1
pIC50 [2]: 5.44 | pIC50 [3]: 5.09 | pIC50 [1]: 5.46
